Source: US20170224833A1, “SELF-ASSEMBLING MOLECULES THAT ACCUMULATE IN ACIDIC TUMOR MICROENVIRONMENTS” (OHIO STATE INNOVATION FOUNDATION, priority 2014, published 2017)

Test: Fluorescence anisotropy (FA) in salt solution (150 mM NaCl, 2.2 mM CaCl2; optionally MSA or PEG)
Assay type: physicochemical
Details: dye directly conjugated to albumin (control)
Experimental: Fluorescence and FA measurements were done using 20-100 μM of PA mixtures in 150 mM NaCl and 2.2 mM CaCl2 and various serum (MP Biomedicals) concentrations (0.75-100% v/v) diluted in the same salt buffer. PA samples in serum or MSA were not heated and cooled. All samples were then pH adjusted using HCl/NaOH solutions, transferred to a 96-well plate followed by collection of fluorescence emission from PA-(Rubipy)3 first parallel (Ipar) and then perpendicular (Iperp) to the excitation polarization using a hybrid reader fluorimeter (BioTek Synergy H4) at room temperature. The excitation wavelength used was 458 nm and the emission was monitored using a 640/20 nm filter. The same method was followed for control experiments involving serum background samples, dye conjugated MSA, only 1.5% PA-(Rubipy)3 in serum and 100 μM PA mixture in MSA and salt buffer. FA was calculated using the following equation:
pH dependent FA values of a 100 μM PAmix1 in the same isotonic salt solution (FIG. 17A) were then obtained. […] The end of this transition was defined as the pH point below which the FA became constant again. The transition profile measured via FA correlated well with that obtained from the pH dependent CD spectra (FIG. 17B). The FA transition onset at 6.98 is close to the most basic pH CD spectrum at 7.10 that started to deviate from a superimposable random coil morphology. […]

MSA-dye conjugate: Ru(bipy)3^2+ dye directly conjugated to pure Mouse Serum Albumin (MSA), FA control
FA, constant over pH and time: ~0.04
